Reference: ChEMBL document CHEMBL3734667, “Antiviral activity of benzotriazole derivatives. 5-[4-(Benzotriazol-2-yl)phenoxy]-2,2-dimethylpentanoic acids potently and selectively inhibit Coxsackie Virus B5” (Bioorg Med Chem, 2015)

Assay: Selectivity index, ratio of CC50 for MDBK cells to EC50 for BVDV
Parameters: species or system Bovine viral diarrhea virus 1

With `NC(=O)c1ncn([C@@H]2O[C@H](CO)[C@@H](O)[C@H]2O)n1` [RIBAVIRIN] the “Ratio CC50/EC50” value was greater than 12.5.
